{
  "source": "patent US20210230213A1",
  "about": "“ARAMCHOL SALTS” (GALMED RESEARCH AND DEVELOPMENT LTD., priority 2013, published 2021)",
  "settings": "water",
  "data": [
    {"smiles": "NCCO", "note": "[Ethanolamine]", "values": [
      {"measurement": "Dissolved (50 in g in 1) at 50° C.", "setting": "Aramchol free acid and base 1:1, 50° C.", "result": "Yes"},
      {"measurement": "salt remains in solution after cooling to 20° C.", "setting": "cooled to 20° C.", "result": "no"}
    ]}
  ]
}
